Assay: Nasal administration test for RI-labeled dextran/PEG-PCL-Tat: distribution efficiency in tissues
Details: 60 minutes after nasal administration; for Relative ratio: drug solution alone taken as 1

[^14C]-Dextran [Drug solution alone]
ID %/g tissue (distribution efficiency of RI-labeled dextran) (Forebrain part): 0.159 ID %/g tissue | Relative ratio (Forebrain part): 1 | ID %/g tissue (distribution efficiency of RI-labeled dextran) (Hindbrain part): 0.130 ID %/g tissue | Relative ratio (Hindbrain part): 1 | ID %/g tissue (distribution efficiency of RI-labeled dextran) (Olfactory bulb): 2.104 ID %/g tissue | Relative ratio (Olfactory bulb): 1 | ID %/g tissue (distribution efficiency of RI-labeled dextran) (Spinal cord): 0.042 ID %/g tissue | Relative ratio (Spinal cord): 1 | ID %/g tissue (distribution efficiency of RI-labeled dextran) (Whole brain): 0.177 ID %/g tissue | Relative ratio (Whole brain): 1

Reference: patent US20220241422A1, “DRUG DELIVERY COMPOSITION AND PHARMACEUTICAL COMPOSITION” (Nihon University, priority 2019, published 2022)
